Literature values in US20250025454A1 (priority 2021, published 2025).

Molecular target: optimized SARS-CoV-2 RdRp model (Severe acute respiratory syndrome coronavirus 2, UniProt P0DTD1)
Settings: cited from earlier work

## NC(=O)c1ncn([C@@H]2O[C@H](CO)[C@@H](O)[C@H]2O)n1 [ribavirin]
  docking score reported by Elfiky: -7.8 kcal/mol
